The text below walks through data of ChEMBL document CHEMBL3046955, “Antiviral effects of three novel derivatives of adefovir on the replication of hepatitis B virus” (Med Chem Res, 2012).

Experiment [1] has as its system Hepatitis B virus. Put plainly: Antiviral activity against Hepatitis B virus infected human HepG2(2.2.15) cells assessed as inhibition of viral DNA replication after 9 days by RT-PCR analysis. The format is functional, organism-based.
Experiment [2] deals with Hepatitis B virus. Put plainly: Antiviral activity against Hepatitis B virus infected human HepG2(2.2.15) cells assessed as viral DNA level after 9 days by southern blot analysis. The format is functional, organism-based.

Turning to `CC(Cn1cnc2c(Sc3ccc4c(c3)CCO4)nc(N)nc21)OCP(=O)(OCC(F)(F)F)OCC(F)(F)F` (stereo not drawn), the inhibition entry in the experiment with Hepatitis B virus [1] was “Dose-dependent effect”. In the experiment with Hepatitis B virus [2], the Activity result was “Dose-dependent effect”.

For `CC(C)(C)C(=O)OCOP(=O)(COCCn1cnc2c(N)ncnc21)OCOC(=O)C(C)(C)C` [ADEFOVIR DIPIVOXIL], the inhibition result in the experiment with Hepatitis B virus [1] was “Dose-dependent effect”. For the same compound, the Activity entry with Hepatitis B virus [2] is “Dose-dependent effect”.

In the case of `COc1ccc(Sc2nc(N)nc3c2ncn3CCOCP(=O)(OCC(F)(F)F)OCC(F)(F)F)cc1F`, the inhibition result with Hepatitis B virus [1] was “Dose-dependent effect”. For the same compound, the Activity entry in the experiment with Hepatitis B virus [2] is “Dose-dependent effect”.

For the compound `CSc1ccc(Sc2nc(N)nc3c2ncn3CCOCP(=O)(OCC(F)(F)F)OCC(F)(F)F)cc1`, the inhibition entry with Hepatitis B virus [1] was “Dose-dependent effect”. For the same compound, the Activity entry in the experiment with Hepatitis B virus [2] is “Dose-dependent effect”.
